Laboratory results as given in patent US20060079439A1, “Elastin prevents occlusion of body vessels by vascular smooth muscle cells” (priority 2002, published 2006).

Test system: Eln −/− vascular smooth muscle cells
Details: for percentage of cells with actin stress fibers and defined focal adhesions (scoring): compared with untreated cells or control peptide, at least 100 cells in 3 cultures

VGVAPG (A bioactive fragment of tropoelastin.) [elastin peptide]
percentage of cells with actin stress fibers and defined focal adhesions (scoring): significant increase

B1: tropoelastin: protein encoded by the elastin gene; human amino acid sequence SEQ ID NO: 2; used as recombinant tropoelastin (protein, listed as Homo sapiens)
chain: MAGLTAAAPRPGVLLLLLSILHPSRPGGVPGAIPGGVPGGVFYPGAGLGALGGGALGPGGKPLKPVPGGLAGAGLGAGLGAFPAVTFPGALVPGGVADAAAAYKAAKAGAGLGGVPGVGGLGVSAGAVVPQPGAGVKPGKVPGVGLPGVYPGGVLPGARFPGVGVLPGVPTGAGVKPKAPGVGGAFAGIPGVGPFGGPQPGVPLGYPIKAPKLPGGYGLPYTTGKLPYGYGPGGVAGAAGKAGYPTGTGVGPQAAAAAAAKAAAKFGAGAAGVLPGVGGAGVPGVPGAIPGIGGIAGVGTPAAAAAAAAAAKAAKYGAAAGLVPGGPGFGPGVVGVPGAGVPGVGVPGAGIPVVPGAGIPGAAVPGVVSPEAAAKAAAKAAKYGARPGVGVGGIPTYGVGAGGFPGFGVGVGGIPGVAGVPSVGGVPGVGGVPGVGISPEAQAAAAAKAAKYGVGTPAAAAAKAAAKAAQFGLVPGVGVAPGVGVAPGVGVAPGVGLAPGVGVAPGVGVAPGVGVAPGIGPGGVAAAAKSAAKVAAKAQLRAAAGLGAGIPGLGVGVGVPGLGVGAGVPGLGVGAGVPGFGAGADEGVRRSLSPELREGDPSSSQHLPSTPSSPRVPGALAAAKAAKYGAAVPGVLGGLGALGGVGIPGGVVGAGPAAAAAAAKAAAKAAQFGLVGAAGLGGLGVGGLGVPGVGGLGGIPPAAAAKAAKYGAAGLGGVLGGAGQFPLGGVAARPGFGLSPIFPGGACLGKACGRKRK
increase of the percentage of Eln −/− cells with organized actin stress fibers (1.0 ug/ml, within 3 hours of exposure): 3 fold | percentage of Eln −/− cells with organized actin stress fibers (1.0 ug/ml, within 3 hours of exposure, untreated Eln −/− cells 23%): 74% | percentage of cells with actin stress fibers and defined focal adhesions (scoring): significant increase
